Assay results from PubChem BioAssay (Tox21).
The list shows a part of the results, in another mix than the full data. Inconclusive results are not listed. Some structures have more than one record in an assay (separate samples or runs), and their calls can disagree. Calls of active or inactive are those of the source. Unless noted, the call rests on the fitted dose curve; in most records, active means well fitted curve in the direction sought with a large enough effect in the repeat runs; inconclusive means weak or mixed curves; inactive means no such curve, though single readings can be large; an effect the other way counts as inactive or inconclusive.

Sequences of proteins named here, by UniProt entry; tags and fusion partners are left off. A change or cut given only in a name is not applied to a line headed by its entry.
UniProt P03372, whole entry, looked up: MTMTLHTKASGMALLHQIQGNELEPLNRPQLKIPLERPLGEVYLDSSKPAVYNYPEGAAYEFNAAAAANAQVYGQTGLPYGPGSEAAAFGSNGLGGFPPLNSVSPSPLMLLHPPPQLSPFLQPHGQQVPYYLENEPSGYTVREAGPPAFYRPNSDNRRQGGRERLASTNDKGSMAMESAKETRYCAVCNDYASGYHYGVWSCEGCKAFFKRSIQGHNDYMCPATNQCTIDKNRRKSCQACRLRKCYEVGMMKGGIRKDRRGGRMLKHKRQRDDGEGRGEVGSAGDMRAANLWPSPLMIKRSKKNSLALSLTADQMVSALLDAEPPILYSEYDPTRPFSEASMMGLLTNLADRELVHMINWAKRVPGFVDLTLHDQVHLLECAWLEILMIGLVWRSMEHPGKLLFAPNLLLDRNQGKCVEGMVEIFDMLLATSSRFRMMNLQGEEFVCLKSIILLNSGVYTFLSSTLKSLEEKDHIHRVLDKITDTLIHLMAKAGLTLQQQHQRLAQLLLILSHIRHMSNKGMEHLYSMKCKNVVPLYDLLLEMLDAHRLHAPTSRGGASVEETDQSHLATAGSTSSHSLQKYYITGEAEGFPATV
UniProt Q92731, whole entry, looked up: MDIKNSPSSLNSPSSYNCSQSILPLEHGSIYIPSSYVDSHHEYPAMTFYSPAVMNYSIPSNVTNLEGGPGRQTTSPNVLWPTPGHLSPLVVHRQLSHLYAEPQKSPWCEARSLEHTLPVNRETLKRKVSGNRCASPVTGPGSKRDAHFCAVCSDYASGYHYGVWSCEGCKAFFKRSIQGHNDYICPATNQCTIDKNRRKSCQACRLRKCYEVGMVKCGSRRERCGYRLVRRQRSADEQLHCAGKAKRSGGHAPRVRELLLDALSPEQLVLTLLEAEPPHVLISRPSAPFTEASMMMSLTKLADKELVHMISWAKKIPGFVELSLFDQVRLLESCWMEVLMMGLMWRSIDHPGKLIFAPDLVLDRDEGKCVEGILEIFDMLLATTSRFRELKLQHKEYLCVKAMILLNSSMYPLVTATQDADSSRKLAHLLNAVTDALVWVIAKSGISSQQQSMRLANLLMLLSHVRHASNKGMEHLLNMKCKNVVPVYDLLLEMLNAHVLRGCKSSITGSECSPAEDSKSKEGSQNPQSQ
UniProt P10275: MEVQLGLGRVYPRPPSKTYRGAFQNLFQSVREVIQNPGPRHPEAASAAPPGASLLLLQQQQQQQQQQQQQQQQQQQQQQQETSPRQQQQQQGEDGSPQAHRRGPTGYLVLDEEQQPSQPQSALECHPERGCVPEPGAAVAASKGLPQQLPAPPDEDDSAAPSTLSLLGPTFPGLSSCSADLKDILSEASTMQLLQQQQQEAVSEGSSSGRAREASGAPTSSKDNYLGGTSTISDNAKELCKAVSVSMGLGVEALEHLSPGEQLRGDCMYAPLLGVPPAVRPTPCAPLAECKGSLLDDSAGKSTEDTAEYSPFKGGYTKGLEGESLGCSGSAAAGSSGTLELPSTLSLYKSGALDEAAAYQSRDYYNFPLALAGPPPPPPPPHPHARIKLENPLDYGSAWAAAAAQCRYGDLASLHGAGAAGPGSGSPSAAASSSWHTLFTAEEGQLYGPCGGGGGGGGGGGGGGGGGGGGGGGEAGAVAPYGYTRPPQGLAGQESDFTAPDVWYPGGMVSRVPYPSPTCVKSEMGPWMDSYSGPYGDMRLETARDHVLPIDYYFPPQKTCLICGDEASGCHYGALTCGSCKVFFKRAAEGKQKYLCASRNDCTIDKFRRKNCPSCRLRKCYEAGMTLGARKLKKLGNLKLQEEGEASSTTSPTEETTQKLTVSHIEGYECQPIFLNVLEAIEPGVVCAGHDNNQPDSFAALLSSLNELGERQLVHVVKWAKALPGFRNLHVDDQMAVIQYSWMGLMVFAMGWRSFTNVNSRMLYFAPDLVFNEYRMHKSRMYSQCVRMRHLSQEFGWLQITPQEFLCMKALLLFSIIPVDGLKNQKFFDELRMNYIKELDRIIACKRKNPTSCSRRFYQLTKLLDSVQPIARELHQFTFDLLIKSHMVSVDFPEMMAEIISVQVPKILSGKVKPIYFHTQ

What was measured:
[1] = A CellTox Green Cytotoxicity Assay to monitor cytotoxicity in HEK293 cells - 0 hour (AID 1224869); conditions: CellTox Green fluorescence; at 76.8 µM (top of the series) unless noted; further: nearly all actives have a fitted effect of over 50% in size
Procedure, shortened: (§1)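 Cells (HEK293, 600/well) and dye reagent are dispensed together. After 5 h at 37 C, 23 nL compound is pinned in. Plates stay at 37 C for 40 h with fluorescence read at 0h, 8h, 16h, 24h, 32h and 40h.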

[2] = qHTS RealTime-Glo MT Cell Viability Assay in HEK293 cells - 40 hour (AID 1224874); conditions: RealTime-Glo luminescence; max response: active compounds read low; further: nearly all actives have a fitted effect of over 50% in size; further: potency means the concentration at half of the fitted maximal effect
Procedure, shortened: (§2)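 Real-time viability in HEK293: signal arises when living cells convert a prosubstrate for NanoLuc in the medium, so luminescence tracks viable cell number. Compound (23 nL, DMSO) added 5 h post-seeding; kinetic reads at 0–40 h, 37 C.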

[3] = A CellTox Green Cytotoxicity Assay to monitor cytotoxicity in HEK293 cells - 16 hour (AID 1224888); further: nearly all actives have a fitted effect of over 35% in size; further: potency means the concentration at half of the fitted maximal effect
Procedure, shortened: as §1

[4] = qHTS assay to identify small molecule antagonists of the sonic hedgehog signaling (Shh) pathway - cell viability counter screen (AID 1259367); further: nearly all actives have a fitted effect of over 55% in size; further: potency means the concentration at half of the fitted maximal effect
Procedure, shortened: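 CellTiter-Fluor signal in conditioned medium-stimulated 3T3 Gli1-Luc cells, 23 hr compound exposure, 37C.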

[5] = qHTS assay to identify small molecule agonists of the sonic hedgehog signaling (Shh) pathway (AID 1259368; calls by dose curve;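 further: NIH/3T3-derived 3T3Gli1-Luc cells carrying a stable Gli1-driven firefly luciferase reporter; nearly all actives have a fitted effect of over 15% in size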); conditions: NIH/3T3 Gli1-Luc reporter, luciferase, 24 h, active compounds read high; at 92.4 µM (top of the series) unless noted
Procedure, shortened: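 Cells of a mouse NIH/3T3 clone stably expressing luciferase under the Gli1 transcriptional response element are exposed to test chemicals for 24 hr at 37 C. Pathway activation is detected as a rise in luminescence.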

[6] = qHTS RealTime-Glo MT Cell Viability Assay in HepG2 cells - 40 hour (AID 1224870); further: nearly all actives have a fitted effect of over 50% in size; further: potency means the concentration at half of the fitted maximal effect
Procedure, shortened: (§3)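 Real-time viability: cells seeded at 600 per well together with NanoLuc and cell-permeant prosubstrate, compounds added after 5 h incubation. Luminescence tracked at 0, 8, 16, 24, 32 and 40 h of exposure.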

[7] = A CellTox Green Cytotoxicity Assay to monitor cytotoxicity in HEK293 cells - 40 hour (AID 1224871); further: nearly all actives have a fitted effect of over 45% in size; further: potency means the concentration at half of the fitted maximal effect
Procedure, shortened: as §1

[8] = qHTS RealTime-Glo MT Cell Viability Assay in HEK293 cells - 16 hour (AID 1224872); further: nearly all actives have a fitted effect of over 50% in size; further: potency means the concentration at half of the fitted maximal effect
Procedure, shortened: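 Cells + reagent dispensed (600 cells/well, HEK293) → 5 h at 37 C/5% CO2 → 23 nL compound in DMSO pinned → 40 h at 37 C → luminescence read at 0, 8, 16, 24, 32, 40 h.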

[9] = qHTS RealTime-Glo MT Cell Viability Assay in HepG2 cells - 8 hour (AID 1224873); further: nearly all actives have a fitted effect of over 55% in size; further: potency means the concentration at half of the fitted maximal effect
Procedure, shortened: as §3

[10] = A CellTox Green Cytotoxicity Assay to monitor cytotoxicity in HEK293 cells - 32 hour (AID 1224881); further: nearly all actives have a fitted effect of over 40% in size; further: potency means the concentration at half of the fitted maximal effect
Procedure, shortened: as §1

[11] = qHTS RealTime-Glo MT Cell Viability Assay in HEK293 cells - 8 hour (AID 1224887); further: nearly all actives have a fitted effect of over 50% in size; further: potency means the concentration at half of the fitted maximal effect
Procedure, shortened: as §2

[12] = A CellTox Green Cytotoxicity Assay to monitor cytotoxicity in HepG2 cells - 8 hour (AID 1224890); further: nearly all actives have a fitted effect of over 45% in size; further: potency means the concentration at half of the fitted maximal effect
Procedure, shortened: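 Cells and non-lytic dye reagent are dispensed together (600 HepG2 cells/well) and incubated 5 h before DMSO compound transfer. Kinetic fluorescence is then recorded in the same wells during 40 h at 37 C.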

[13] = qHTS assay to identify small molecule antagonists of the estrogen receptor alpha (ER-alpha) signaling pathway using the BG1 cell line in the presence of 0.1 nM 17-beta-estradiol - cell viability counter screen (AID 1259241); further: nearly all actives have a fitted effect of over 40% in size
Procedure, shortened: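 Viability in VM7Luc4E2 cells after 22 hr compound exposure under 0.1 nM 17beta-estradiol stimulation, by CellTiter-Fluor.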

[14] = biological target: Estrogen receptor (Homo sapiens) (UniProt P03372); assay: qHTS assay to identify small molecule antagonists of the estrogen receptor alpha (ER-alpha) signaling pathway using the BG1 cell line in the presence of 0.1 nM 17-beta-estradiol (AID 1259244); conditions: VM7Luc4E2 (BG1) ERE-luciferase, antagonist mode, 0.1 nM E2, 22 h; at 92.4 µM (top of the series) unless noted; further: nearly all actives have a fitted effect of over 50% in size
[15] = qHTS assay to identify small molecule agonists of the sonic hedgehog signaling (Shh) pathway - cell viability counter screen (AID 1259366); further: nearly all actives have a fitted effect of over 50% in size; further: potency means the concentration at half of the fitted maximal effect
Procedure, shortened: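 Stable Gli1-Luc NIH/3T3 clone, 2,000 cells/well. Compound exposure 24hr at 37C. Read-out: CellTiter-Fluor fluorescence.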

[16] = qHTS assay to identify small molecule antagonists of the sonic hedgehog signaling (Shh) pathway (AID 1259369; calls by dose curve; further: nearly all actives have a fitted effect of over 45% in size; further: potency means the concentration at half of the fitted maximal effect)
Procedure, shortened: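 Cells are plated and held 4hr at 37 C, compounds (DMSO) are pinned in, conditioned medium is added to stimulate the pathway, and after 24hr luciferase reagent is added for 30min before luminescence is read.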

[17] = biological target: Estrogen receptor beta (Homo sapiens) (UniProt Q92731); assay: qHTS assay to identify small molecule agonists of the estrogen receptor beta (ER-beta) signaling pathway (AID 1259377; active means well fitted activation curve with a large enough effect in the signal ratio in the repeat runs, not every such curve was filed as active; the % refers to the signal ratio); conditions: ER-beta-UAS-bla HEK293T, beta-lactamase FRET ratio, 16 h; at 92.4 µM (top of the series) unless noted
[18] = qHTS assay to identify small molecule agonists of the androgen receptor (AR) signaling pathway in the presence of an antagonist - cell viability counter screen (AID 1259379); further: nearly all actives have a fitted effect of over 25% in size; further: potency means the concentration at half of the fitted maximal effect
Procedure, shortened: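 Cytotoxicity is assessed by CellTiter-Fluor in MDA-kb2 cells carrying an MMTV-driven luciferase reporter. Cells receive 3.0uM nilutamide plus compounds at 15 concentrations and incubate 16 hr at 37C without CO2 before fluorescence reading.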

[19] = biological target: Androgen receptor (Homo sapiens) (UniProt P10275); assay: qHTS assay to identify small molecule antagonists of the androgen receptor (AR) signaling pathway using the MDA cell line in the presence of 0.5 nM R1881 (AID 1259243); further: nearly all actives have a fitted effect of over 50% in size; further: potency means the concentration at half of the fitted maximal effect
[20] = qHTS assay to identify small molecule antagonists of the estrogen related receptor (ERR) signaling pathway from Tox21 library (AID 1224848); further: nearly all actives have a fitted effect of over 50% in size; further: potency means the concentration at half of the fitted maximal effect
Procedure, shortened: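 ERR cell line, 2,000 cells/well. 6 h settle, then compound (DMSO) added; 18 h at 37 C; ONE-Glo luminescence after 30 min RT.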
On the % scale 0 is the no-effect control and ±100 the full control effect.

CCCCCCCCCCCCCC[P+](CCCCCC)(CCCCCC)CCCCCC
active: Potency [2] 3880 nM | Potency [3] 24500 nM | Potency [4] 48400 nM
inactive: cytotoxicity [1] 15.4% | activity change [5] -19.9%

CN(C(=O)Cc1cccc2occc12)[C@H]1CC[C@@]2(CCCO2)C[C@@H]1N1CCCC1
inactive: cytotoxicity [1] -2.17% | Potency [6] | Potency [7] | Potency [8] | Potency [9] | max response [2] 11.7% | Potency [10] | Potency [11] | Potency [3] | Potency [12] | Potency [13] | activity change, negative = inhibition [14] -10.7% | Potency [15] | Potency [4] | activity change [5] 0.153% | Potency [16] | activation [17] 1.54% | Potency [18]

CN(C(=O)Cc1ccc(Cl)c(Cl)c1)[C@H]1CC[C@@]2(CCCO2)C[C@@H]1N1CCCC1
inactive: cytotoxicity [1] -7.54% [at 35.3 µM] | Potency [6] | Potency [7] | Potency [8] | Potency [9] | max response [2] -21.6% | Potency [10] | Potency [11] | Potency [3] | Potency [12] | Potency [13] | Potency [19] | activity change, negative = inhibition [14] 0.487% [at 42.5 µM] | Potency [15] | activity change [5] -2.07% [at 42.5 µM] | activation [17] -1.3% [at 42.5 µM] | Potency [18]

O=[N+]([O-])c1ccc([N+](=O)[O-])cc1
active: Potency [9] 43600 nM
inactive: cytotoxicity [1] -9.57% | Potency [6] | Potency [7] | Potency [8] | max response [2] -24.6% | Potency [10] | Potency [3] | Potency [12] | activity change [5] 3.78%

Cc1cc([N+](=O)[O-])c(O)c([N+](=O)[O-])c1
inactive: cytotoxicity [1] -7.26% | Potency [6] | Potency [7] | Potency [9] | Potency [10] | Potency [3] | Potency [12] | Potency [19] | Potency [4] | activity change [5] -0.958%
active: Potency [18] 55000 nM

O=[As]c1ccccc1 (stereo not drawn)
inactive: cytotoxicity [1] -5.69% | Potency [3] | activity change, negative = inhibition [14] -109% | activity change [5] -11.8%
active: Potency [20] 243 nM | Potency [6] 347 nM | Potency [7] 490 nM | Potency [8] 490 nM | Potency [9] 1740 nM | Potency [10] 616 nM | Potency [11] 3090 nM | Potency [12] 3090 nM | Potency [19] 344 nM | Potency [15] 172 nM | Potency [4] 344 nM | Potency [16] 86.3 nM

O=C(Cl)Oc1ccccc1
inactive: Potency [20] | cytotoxicity [1] -3.37% | Potency [6] | Potency [7] | Potency [8] | Potency [9] | max response [2] 12.3% | Potency [10] | Potency [11] | Potency [3] | Potency [12] | Potency [13] | Potency [19] | activity change, negative = inhibition [14] -4.79% | Potency [15] | Potency [4] | activity change [5] -1.01% | Potency [16] | Potency [18]

COP(=S)(Cl)OC
inactive: cytotoxicity [1] -2.4% | Potency [6] | Potency [7] | Potency [8] | Potency [9] | max response [2] -14.7% | Potency [10] | Potency [11] | Potency [3] | Potency [12] | Potency [13] | activity change, negative = inhibition [14] -13.6% | Potency [15] | Potency [4] | activity change [5] 1.27% | activation [17] -0.0232% | Potency [18]
